The numbers were not newly measured in patent US9222055B2, “High intensity fragrances” (TAKASAGO INTERNATIONAL CORPORATION, priority 2009, dated 2015), which cites them from elsewhere.

Like-named read-outs stand apart in the source and are kept apart here.

As to Isobornyl Cyclohexanol, the Bio-Degradable entry is, setting by setting: (Table 18, ingredients of Comparative Fragrance J) “No”; (Table 19, ingredients of Comparative Fragrance K) “No”.
